Data on one compound can be found in patent US5523308A, “Peptidyl heterocycles useful in the treatment of thrombin related disorders” (priority 1995, dated 1996).

This assay concerns the target T1, human alpha-thrombin (Homo sapiens, UniProt P00734).
T1 construct: commercial human alpha-thrombin (American Diagnostica); purchased American Diagnostica
As to the kind of experiment: Thrombin-catalyzed hydrolysis of chromogenic substrate Spectozyme TH (in vitro enzyme assay). It counts as biochemical.

For the compound `CC1CNc2c(cccc2S(=O)(=O)N[C@@H](CCCNC(=N)N)C(=O)N2CC[C@@H](C)C[C@@H]2C(=O)O)C1` (stereo partly shown) [Argatroban, reference compound], the affinity corresponds to a Ki of 10 nM.
